Patent US9464084B2, “P2X7 modulators” (Janssen Pharmaceutica NV, priority 2013, dated 2016)

Sequences of proteins named here, by UniProt entry; tags and fusion partners are left off. A change or cut given only in a name is not applied to a line headed by its entry.
UniProt Q99572: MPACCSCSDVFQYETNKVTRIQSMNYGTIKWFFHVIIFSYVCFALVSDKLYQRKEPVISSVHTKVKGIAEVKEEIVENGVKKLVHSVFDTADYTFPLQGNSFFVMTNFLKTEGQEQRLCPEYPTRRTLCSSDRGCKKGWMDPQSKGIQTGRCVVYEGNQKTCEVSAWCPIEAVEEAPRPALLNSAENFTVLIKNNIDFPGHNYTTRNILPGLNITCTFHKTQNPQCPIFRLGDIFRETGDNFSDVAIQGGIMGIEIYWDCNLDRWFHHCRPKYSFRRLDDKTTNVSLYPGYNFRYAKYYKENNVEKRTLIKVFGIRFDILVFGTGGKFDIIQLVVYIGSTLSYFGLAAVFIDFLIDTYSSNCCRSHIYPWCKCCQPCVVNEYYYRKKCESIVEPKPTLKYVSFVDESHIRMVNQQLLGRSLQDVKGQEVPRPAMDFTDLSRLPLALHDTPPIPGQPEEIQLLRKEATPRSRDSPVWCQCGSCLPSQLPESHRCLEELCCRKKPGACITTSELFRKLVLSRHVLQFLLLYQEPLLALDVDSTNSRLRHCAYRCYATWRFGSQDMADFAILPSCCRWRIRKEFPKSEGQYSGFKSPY

target: P2X7 (Homo sapiens (Human), UniProt Q99572); test: Radioligand binding, tritiated A-804598, human P2X7-1321N1 cell membranes; conditions: 1 hour at 4° C.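 Further: ki obtained from the binding IC50 after correction for tracer concentration and tracer affinity.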

| SMILES | Ki [nM] |
| --- | --- |
| C[C@H]1c2nnn(-c3cnccn3)c2CCN1C(=O)c1ccc(F)c(Cl)c1Cl (single isomer, unassigned) [Example 144, (S*)-(2,3-Dichloro-4-fluorophenyl)(4-methyl-1-(pyrazin-2-yl)-6,7-dihydro-1H-[1,2,3]triazolo[4,5-c]pyridin-5(4H)-yl)methanone] | 3.2 |
| C[C@@H]1c2ncn(-c3ncc(F)cn3)c2CCN1C(=O)c1cccc(C(F)(F)F)c1Cl (single isomer, unassigned) [Example 193, (R*)-(2-Chloro-3-(trifluoromethyl)phenyl)(1-(5-fluoropyrimidin-2-yl)-4-methyl-6,7-dihydro-1H-imidazo[4,5-c]pyridin-5(4H)-yl)methanone] | 22.4 |
| C[C@H]1c2ncn(-c3ncc(F)cn3)c2CCN1C(=O)c1cccc(C(F)(F)F)c1Cl (single isomer, unassigned) [Example 194, (S*)-(2-Chloro-3-(trifluoromethyl)phenyl)(1-(5-fluoropyrimidin-2-yl)-4-methyl-6,7-dihydro-1H-imidazo[4,5-c]pyridin-5(4H)-yl)methanone] | 1380 |
| CCOc1cccnc1-n1nnc2c1CCN(C(=O)c1cccc(C(F)(F)F)c1Cl)[C@@H]2C (single isomer, unassigned) [Example 316, (R*)-(2-chloro-3-(trifluoromethyl)phenyl)(1-(3-ethoxypyridin-2-yl)-4-methyl-6,7-dihydro-1H-[1,2,3]triazolo[4,5-c]pyridin-5(4H)-yl)methanone] | 31.6 |
| CC1c2ncn(-c3ncc(F)cn3)c2CCN1C(=O)c1cccc(C(F)(F)F)c1Cl (stereo not drawn) [Example 22, (2-Chloro-3-(trifluoromethyl)phenyl)(1-(5-fluoropyrimidin-2-yl)-4-methyl-6,7-dihydro-1H-imidazo[4,5-c]pyridin-5(4H)-yl)methanone] | 126 |
| CC1c2ncn(-c3ncccn3)c2CCN1C(=O)c1cccc(C(F)(F)F)c1Cl (stereo not drawn) [Example 23, (2-Chloro-3-(trifluoromethyl)phenyl)(4-methyl-1-(pyrimidin-2-yl)-6,7-dihydro-1H-imidazo[4,5-c]pyridin-5(4H)-yl)methanone] | 39.8 |
| CCOC(=O)C1c2ncn(-c3ccccc3)c2CCN1C(=O)c1cccc(Cl)c1Cl (stereo not drawn) [Example 27, Ethyl 5-(2,3-dichlorobenzoyl)-1-phenyl-4,5,6,7-tetrahydro-1H-imidazo[4,5-c]pyridine-4-carboxylate] | 1380 |
| O=C(c1cccc(C(F)(F)F)c1Cl)N1CCc2c(ncn2-c2ccccn2)C1CF (stereo not drawn) [Example 32, (2-Chloro-3-(trifluoromethyl)phenyl)(4-(fluoromethyl)-1-(pyridin-2-yl)-6,7-dihydro-1H-imidazo[4,5-c]pyridin-5(4H)-yl)methanone] | 37.2 |
| O=C(c1cccc(C(F)(F)F)c1Cl)N1CCc2c(nnn2-c2ccccn2)C1 [Example 63, 5-{[2-Chloro-3-(trifluoromethyl)phenyl]carbonyl}-1-pyridin-2-yl-4,5,6,7-tetrahydro-1H-[1,2,3]triazolo[4,5-c]pyridine] | 11.7 |
| Cn1nc2c(c1-c1ccc(F)cc1)CCN(C(=O)c1cccc(C(F)(F)F)c1Cl)C2 [Example 105, 6-{[2-Chloro-3-(trifluoromethyl)phenyl]carbonyl}-3-(4-fluorophenyl)-2-methyl-4,5,6,7-tetrahydro-2H-pyrazolo[3,4-c]pyridine] | 200 |
| O=C(c1ccc(Cl)cc1Cl)N1CCc2c(nnn2-c2ncccn2)C1 [Example 257, (2,4-dichlorophenyl)(1-(pyrimidin-2-yl)-6,7-dihydro-1H-[1,2,3]triazolo[4,5-c]pyridin-5(4H)-yl)methanone] | 15.8 |
| CCOc1cccnc1-n1nnc2c1CCN(C(=O)c1cccc(C(F)(F)F)c1Cl)C2C (stereo not drawn) [Example 258, (2-Chloro-3-(trifluoromethyl)phenyl)(1-(3-ethoxypyridin-2-yl)-4-methyl-6,7-dihydro-1H-[1,2,3]triazolo[4,5-c]pyridin-5(4H)-yl)methanone] | 63.1 |
